1 molecule from paper PMC8479189 (Frontiers in Oncology, 2021) can be followed below.

In this assay the target is T1, human PD-L2.ECD.His (human, UniProt Q9BQ51 20-220).
T1 construct: extracellular domain of human PD-L2
T1 sequence (looked up): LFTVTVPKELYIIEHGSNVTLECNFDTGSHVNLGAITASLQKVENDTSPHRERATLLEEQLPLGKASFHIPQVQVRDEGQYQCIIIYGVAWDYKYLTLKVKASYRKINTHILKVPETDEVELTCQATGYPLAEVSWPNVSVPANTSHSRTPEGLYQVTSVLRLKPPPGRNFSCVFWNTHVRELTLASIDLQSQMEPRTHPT
Briefly: ELISA; plates coated with human PD-1-mFc, blocked with 2% BSA in PBS; human PD-L2.ECD.His (5 μg/mL) pre-mixed with antibodies (66.7 to 0.001 nmol/L), 1 h at room temperature; HRP-labeled goat anti-His detection. The note with it: both partners purified. A general note: ELISA stands for enzyme-linked immunosorbent assay.

B1: human PD-1-mFc (Fc fusion, UniProt Q15116 25-170, looked up)
chain: LDSPDRPWNPPTFSPALLVVTEGDNATFTCSFSNTSESFVLNWYRMSPSNQTDKLAAFPEDRSQPGQDCRFRVTQLPNGRDFHMSVVRARRNDSGTYLCGAISLAPKAQIKESLRAELRVTERRAEVPTAHPSPSPRPAGQFQTLV
notes: extracellular domain of human PD-1 protein; also called human PD-1.ECD.mFc
For B1, the binding result is on record as “binds”.
